Screening results (PubChem)
SMARCA2 act: SMARCA2 function activation, primary screen. actives 1% (n = 370,000). activation, % at 9.1 µM. AID 652017. MG213 cells, MMTV-luciferase reporter, dexamethasone, overnight; in the data active means activation above about 7.8%;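 further: 0% = vehicle wells and 100% = reference activator wells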
UUG fidelity: yeast start codon fidelity modulation | S. cerevisiae UUG-firefly luciferase reporter, luminescence/redox ratio | activity score, % at 18.7 µM | hit rate 0.13% among 350,000 | AID 602363;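 active means replicate mean at a twofold rise or more, about +100% in these data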;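 further: firefly luciferase made from a UUG start codon reports start codon fidelity; reporter light over untreated wells divided by growth signal over untreated wells; some hits fall short of that in this replicate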
PDI turbidity: PDI (human) enzyme inhibition; PDI insulin aggregation turbidity, A650, 90 min; inhibition, % at 10 µM; actives 0.052% (n = 350,000); AID 588391;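 active means mean inhibition across replicates of 30% or more, whatever share of single replicates reach that level; inconclusive means mean inhibition below 30% while every single replicate reaches 30%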
GSIS activator: primary screen for activators of insulin secretion dependent on glucose, INS-1E cells, GLuc reporter luminescence; INS-1E GLuc reporter insulin secretion, 2-3 h; activation, % at 16.6 µM; actives 0.61% (n = 370,000); AID 743287;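 active means lowest replicate activation of at least 40%, so every replicate reaches that level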;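 further: 0% = median of neutral control wells and 100% = median of IBMX positive control wells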
ERp5 block: ERp5 (human) disulfide isomerase inhibition; Q15084; ERp5 insulin aggregation, absorbance 650 nm, 90 min; inhibition, % at 9.99 µM; actives 0.05% (n = 350,000);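 active means mean replicate inhibition above about 25%, with every replicate also reaching it, limit read from the data, passing the limit was not always enough; inconclusive means only one of those two criteria met; inactive means neither criterion met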
Rev-erbA mod: modulators of human Rev-erb alpha DNA binding. P20393. Rev-erbα–FITC-DNA binding, fluorescence polarization, 90 min. activity, % at 10 µM. actives 0.79% (n = 370,000);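 active means activity above about 14%, limit read from the data; passing the limit was not always enough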;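 further: 0% = DMSO wells with 35 nM protein and 100% = DMSO wells with 750 nM protein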
SMARCA2 act conf: confirmation of SMARCA2 (BRM) function activators; activation, % at 9.1 µM; actives 30% (n = 3,500); shares compounds with SMARCA2 act; MG213 cells, MMTV-luciferase with dexamethasone, luminescence, overnight; MG213 cells expressing E1A, Rb sequestered; DMSO wells 0%, reference activator 100%;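 active means activation above its plate's cutoff, the mean activation of tested wells plus 3 SD, cut at about 7.9% in these data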
VP16 Luc act: GAL4-VP16 reporter activation counter-screen. actives 41% (n = 3,500). shares compounds with SMARCA2 act. HEK293 GAL4-VP16 pG5luc reporter, luciferase luminescence; scaled: DMSO wells 0%, SAHA wells 100%. activation, % at 9.1 µM;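 active means activation above the solvent-only control well mean plus 3 SD, averaged across control plates, cut at about 5.2% in these data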
An asterisk follows results filed as active; ? = inconclusive; · = not tested or not shown. A selection: hits, their analogues and other compounds. The true share with any hit is near 2.1%.

Abbreviations – A = SMARCA2 act; B = UUG fidelity; C = PDI turbidity; D = GSIS activator; E = ERp5 block; F = Rev-erbA mod; G = SMARCA2 act conf; H = VP16 Luc act
1: Nc1ccc(S(=O)(=O)Nc2cnc3ccccc3n2)cc1
  A: -5 | B: -1 | C: 3 | D: 10 | E: ? | F: 7 | G: · | H: ·

2: Nc1ccc(S(=O)(=O)Nc2cnc3c(Cl)cccc3n2)cc1
  A: 9.1* | B: · | C: 3 | D: · | E: 6 | F: -5 | G: 31* | H: 5

3: C[C@@H]1CN([C@@H](C)CO)C(=O)Cc2cc(NS(=O)(=O)c3ccccc3)ccc2O[C@@H]1CN(C)S(C)(=O)=O
  A: · | B: -4 | C: · | D: 22 | E: -2 | F: · | G: · | H: ·

4: COc1ccccc1Nc1nc(N)nc(CSC(=S)N2CCN(c3ccccc3)CC2)n1
  A: 8.7* | B: · | C: 1 | D: 20 | E: 5 | F: -2 | G: -7 | H: 0

5: COc1ccccc1Nc1nc(N)nc(CSC(=S)N2CCC(C)CC2)n1
  A: -1 | B: -24 | C: 17 | D: 2 | E: -5 | F: 6 | G: · | H: ·

6: C=CCC(NCc1ccco1)c1ccc(OC)c(OC)c1 (stereo not drawn)
  A: 9.9* | B: -17 | C: -2 | D: · | E: · | F: 2 | G: -3 | H: 1

7: C=C(C)CC(NCc1ccco1)c1ccc(OC)cc1 (stereo not drawn)
  A: 1 | B: -13 | C: -6 | D: 19 | E: · | F: 0 | G: · | H: ·

8: CC(C)NC(=O)Nc1ccc2c(c1)C(=O)N([C@@H](C)CO)C[C@@H](C)[C@@H](CN(C)Cc1ccc(C(=O)O)cc1)O2
  A: · | B: -4 | C: · | D: 7 | E: 3 | F: · | G: · | H: ·

9: COc1cc2sc3cc(NCc4ccc(C)o4)ccc3c(=O)c2cc1OC
  A: 8.7* | B: -22 | C: 1 | D: 7 | E: -5 | F: 0 | G: 8.9* | H: 9.3*

10: O=C(C[C@H]1CC[C@H](NC(=O)c2ccccn2)[C@H](CO)O1)NCc1cccc(F)c1
  A: · | B: 16 | C: · | D: 7 | E: -1 | F: · | G: · | H: ·

11: COc1cc(SC)ccc1C(=O)Nc1ccc(C)cc1
  A: 3 | B: · | C: -2 | D: 8 | E: -1 | F: 0 | G: · | H: ·

12: COc1cc(SC)ccc1C(=O)Nc1ccc(C)cc1C
  A: 8.1* | B: -5 | C: 9 | D: 5 | E: · | F: 4 | G: 13* | H: 14*

13: CC1CC(NC(=O)/C=C/C(=O)O)CC(C)(C)C1 (stereo not drawn)
  A: 10* | B: -10 | C: 4 | D: 12 | E: -4 | F: -1 | G: -2 | H: 1

14: CC(C)(C)C(=O)Nc1ccnn1C1CCN(C(=O)c2ccc(Cl)cc2F)CC1
  A: 14* | B: -13 | C: 0 | D: 3 | E: 5 | F: 4 | G: -1 | H: 2

15: CC(C)CC(=O)Nc1ccnn1C1CCN(C(=O)c2ccc(Cl)cc2F)CC1
  A: -1 | B: 9 | C: 1 | D: 15 | E: 1 | F: 3 | G: · | H: ·

16: CN(C)/N=C/C=C1\CC/C(=C\c2ccc(Br)cc2)C1=O
  A: 0 | B: -1 | C: -1 | D: · | E: · | F: 7 | G: · | H: ·

17: CN(C)/N=C/C=C1\CCC/C(=C/c2cccs2)C1=O
  A: 8.3* | B: · | C: 0 | D: -2 | E: 2 | F: -4 | G: 8 | H: 5.3*

18: CN1C(=O)c2cc(NC(=O)c3ccc(F)cc3)ccc2OC[C@H]2O[C@@H](CC(=O)NCC3CCCCC3)CC[C@H]21
  A: · | B: 16 | C: · | D: -40 | E: -4 | F: · | G: · | H: ·

19: COC(=O)c1sc(NC(=O)COc2cccc3ccccc23)nc1C
  A: 10* | B: -12 | C: 3 | D: · | E: · | F: 9 | G: 4 | H: 2

20: O=C(C[C@H]1CC[C@@H]2[C@H](COC[C@H](O)CN2S(=O)(=O)c2cccc(Cl)c2)O1)NCCCN1CCOCC1
  A: · | B: · | C: · | D: 5 | E: -6 | F: · | G: · | H: ·

21: O=C(N/N=C/c1ccccc1C(F)(F)F)c1ccc(O)cc1
  A: 8.3* | B: · | C: -5 | D: · | E: -1 | F: 2 | G: 2 | H: 9.4*

22: O=C(N/N=C/c1ccccc1O)c1cccc(C(F)(F)F)c1
  A: -3 | B: -9 | C: 2 | D: 4 | E: · | F: -9 | G: · | H: ·

23: COCCNC(=O)C(=O)N/N=C/c1ccccc1C(F)(F)F
  A: 11* | B: -16 | C: 4 | D: · | E: · | F: 2 | G: 0 | H: 2

24: COc1ccc(-c2ccc(SCC(=O)NC3CCCCC3)nn2)cc1OC
  A: 8.5* | B: -2 | C: 9 | D: 105* | E: -3 | F: -9 | G: 11* | H: 5

25: COc1ccc(C(=O)N2CCCC(O)C2)cc1OC1CCN(C(C)C)CC1 (stereo not drawn)
  A: 8.2* | B: 9 | C: 2 | D: -10 | E: 2 | F: -6 | G: 4 | H: 1

26: COc1ccc2c3c([nH]c2c1)[C@H](CO)N(C(=O)C1CCCCC1)CC31CCN(C(=O)NC(C)C)CC1
  A: · | B: · | C: · | D: -7 | E: -5 | F: · | G: · | H: ·

27: CCCCNc1nc(N)nc(-c2cc(Cl)ccc2O)n1
  A: 17* | B: · | C: -4 | D: -21 | E: · | F: 1 | G: 14* | H: 13*

28: O=C(NCCc1ccccc1)c1nc2ncccn2n1
  A: -3 | B: -20 | C: 8 | D: 9 | E: · | F: 3 | G: · | H: ·

29: c1ccc(CSc2nc3ncccn3n2)cc1
  A: 8.7* | B: -30 | C: 7 | D: 12 | E: 7 | F: 4 | G: 12* | H: 8.8*

30: CC(=O)N1[C@@H]2c3ccc(-c4ccncc4)c(=O)n3C[C@@H]2[C@@H](CO)[C@@H]1C(=O)NC1Cc2ccccc2C1
  A: · | B: · | C: · | D: 14 | E: -2 | F: · | G: · | H: ·

31: CCOc1ccc(OCc2ccc(C(=O)Nc3ccc(Cl)cn3)o2)cc1
  A: 10* | B: -9 | C: 15 | D: -13 | E: 4 | F: 6 | G: 4 | H: 3

32: CC(=O)c1cccc(NC(=S)NCc2ccccc2)c1
  A: 4 | B: -12 | C: -12 | D: -1 | E: -1 | F: -7 | G: · | H: ·

33: CCOC(=O)c1cccc(NC(=S)NCc2ccc(C)cc2)c1
  A: 8.0* | B: -21 | C: -1 | D: -23 | E: 6 | F: 0 | G: 2 | H: 1

34: CCc1nnc(NS(=O)(=O)c2ccc(N3C(=O)c4ccccc4C3=O)cc2)s1
  A: 11* | B: · | C: -4 | D: 18 | E: -9 | F: -4 | G: -2 | H: 2

35: CCc1nnc(NS(=O)(=O)c2ccc(N)cc2)s1
  A: -4 | B: -10 | C: -1 | D: -12 | E: 0 | F: -4 | G: · | H: ·

36: CCOC(=O)OC[C@@H]1[C@@H]2NC(=O)N(C)[C@@]1(COCc1ccc(OC)cc1)Oc1ccccc12
  A: · | B: · | C: · | D: · | E: 5 | F: · | G: · | H: ·

37: Cc1nc(N(C)C)c2sc(=S)n(Cc3ccccc3)c2n1
  A: 8.8* | B: · | C: -2 | D: -9 | E: 2 | F: 6 | G: 4 | H: 0

38: COc1ccc(/C=N\NC(=O)c2nn(C)cc2Cl)cc1CN1CCOCC1
  A: 10* | B: · | C: -1 | D: -7 | E: · | F: -1 | G: -2 | H: 2

39: CCN1CCN(CCCNC(=O)Cn2nc(C)n3nc(-c4ccccc4)cc3c2=O)CC1
  A: -3 | B: 22 | C: 7 | D: -7 | E: 3 | F: -9 | G: · | H: ·

40: CCc1ccc(-c2cc3c(=O)n(CC(=O)NCCCN4CCC(Cc5ccccc5)CC4)nc(C)n3n2)cc1
  A: 10* | B: -20 | C: 2 | D: 21 | E: -13 | F: -1 | G: -11 | H: 3

41: Cc1nn(CC(=O)NCCCN2CCN(Cc3ccccc3)CC2)c(=O)c2cc(-c3ccccc3)nn12
  A: 8.5* | B: -14 | C: -1 | D: 11 | E: 3 | F: -2 | G: -1 | H: 2

42: CCc1ccc2[nH]c(=O)c(CN(Cc3nnnn3C3CCCC3)C3CCCCC3)cc2c1
  A: 8.3* | B: -11 | C: 5 | D: 15 | E: 1 | F: · | G: -1 | H: 5.8*

43: COc1ccc(N2C(=S)N(C(=O)c3ccccc3)C(=Nc3ccccc3)C2=Nc2ccccc2)cc1
  A: 11* | B: -36 | C: -4 | D: · | E: · | F: 1 | G: 2 | H: 3

44: O=C(C1CCCC1)N1CC[C@@H]2[C@H]1c1cc(-c3cccc(F)c3)ccc1N[C@@H]2CO
  A: · | B: · | C: · | D: -45 | E: -1 | F: · | G: · | H: ·

Full records, looked up by structure. Screens in order: SMARCA2 act	UUG fidelity	PDI turbidity	GSIS activator	ERp5 block	Rev-erbA mod	SMARCA2 act conf	VP16 Luc act
Listed for CCc1nnc(NS(=O)(=O)c2ccc(N3C(=O)c4ccccc4C3=O)cc2)s1 → 11*	·	-4	18	-9	-4	-2	2
Listed for Cc1nc(N(C)C)c2sc(=S)n(Cc3ccccc3)c2n1 → 8.8*	·	-2	-9	2	6	4	0
Listed for O=C(NCCc1ccccc1)c1nc2ncccn2n1 → -3	-20	8	9	·	3	·	·
